# Screening results: PubChem, National Center for Advancing Translational Sciences (NCATS)
# An excerpt weighted towards active compounds, which were near 13% of everything screened.
# LMNA splice mod – LMNA splicing modulation. HeLa LMNA splicing GFP/RFP minigene ratio, 48 h. Potency, µM (doses to about 46.1 µM), actives largely listed as inhibitors. hit rate 0.01% among 200,000; active = well fitted inhibition curve with a large enough effect in the signal ratio, with a control signal flat, not every such curve was filed as active; inconclusive = small, poorly fitted or top-dose-only effect, or effect the other way, or a change in a side signal; the % refers to the signal ratio
#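 S3 HeLa stable clones carrying a lamin A-EGFP splicing minigene plus DsRed2 were seeded at 600 cells/well in Opti-MEM with 2% FBS, pin-dosed and incubated 48 h at 37°C. Acumen cytometry (488 nm) gave the GFP/RFP total-intensity ratio.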
# Sfp inh – inhibitors of Bacillus subtilis Sfp phosphopantetheinyl transferase. hit rate 3.5% among 310,000. Potency, µM, actives largely listed as inhibitors. Biochemical Sfp PPTase activity, qHTS. Q9F4F7;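 note: the enzyme is Sfp with the accession as filed and its product quenches rhodamine fluorescence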
#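 Sfp 15 nM + cpd, 15 min RT; start w/ rhodamine-CoA 5 uM, BHQ-2-YbbR 12.5 uM (final); 50 mM Hepes pH 7.6, 10 mM MgCl2, 0.01% NP-40, 0.01% BSA; read 525/598 nm at 0 and 30 min.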
# G9a block – blocks human histone lysine methyltransferase G9a | Q96KQ7 | G9a H3K9 monomethylation, AlphaScreen, 2 h | Potency, µM (top dose mostly 102 µM), most hits filed as inhibitors | hit rate 8.8% among 350,000; note: nearly all actives have a fitted effect of over 75% in size
#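 AlphaScreen detection with an anti-monomethyl H3K9 antibody quantified product after a 2 h room-temperature reaction containing 500 nM biotinylated H3K9 peptide, 20 µM SAM and 20 nM enzyme, which had been preincubated 15 min with compound.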
# miR-21 reporter – raises the signal of a miR-21 reporter; 340,000 tested, under 10 active; HeLa miR-21 FLuc reporter, luciferase, 48 h; Potency, µM (highest dose often 38.3 µM); active = well fitted rising curve with a large enough effect; inconclusive = small, poorly fitted or top-dose-only effect; inactive = no such curve, though single readings can be large or run the other way;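 also: miR-21 action dims this reporter so a rising signal means less miR-21 action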
#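 HeLa cells stably expressing CMV-driven firefly luciferase with a downstream miR-21 binding sequence, endogenously expressing miR-21, were treated with titrations (up to about 40uM final) for 48 hours at 37 degree Celsius. Luciferase luminescence was read after lysis.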
# ALDH1A1 inh – ALDH1A1 (human) enzyme inhibition; Purified ALDH1A1, NADH fluorescence, propionaldehyde substrate; AID 1030; P00352; hit rate 7.3% among 220,000; Potency, µM (series often up to 75.3 µM), hits mostly inhibitors; active = well fitted inhibition curve with a large enough effect, not every such curve was filed as active; inconclusive = small, poorly fitted or top-dose-only effect, or another doubt; inactive = no such curve, though single readings can be large or run the other way
# KDM4E inh – JMJD2E (human) inhibition; Potency, µM (doses to about 57.1 µM), hits mostly inhibitors; hit rate 1.6% among 230,000; JMJD2E catalytic domain, FDH-coupled NADH fluorescence (FDH is formaldehyde dehydrogenase); B2RXH2; active = well fitted inhibition curve with a large enough effect, not every such curve was filed as active; inconclusive = small, poorly fitted or top-dose-only effect, or another doubt; inactive = no such curve, though single readings can be large or run the other way; note: nearly all actives have a fitted effect of over 50% in size
# Numbers stand for hits; n = inactive; u = inconclusive; x = no result; [ ] = remark or other dose. Unless noted, calls come from the whole dose curve; as a rule, active = well fitted curve in the direction sought with a large enough effect; inconclusive = small, poorly fitted or top-dose-only effect, or another doubt; inactive = no such curve, though single readings can be large; an effect the other way counts as inactive or inconclusive.
SMILES,LMNA splice mod,Sfp inh,G9a block,miR-21 reporter,ALDH1A1 inh,KDM4E inh
Cc1ccc(N(C(=O)CNC(=O)c2ccco2)C(C(=O)NC2CCCC2)c2cccnc2)c(C)c1 (stereo not drawn),x,n,n,n,x,x
Cc1ccc(OCC(=O)Nc2cccc(C(=O)OCc3cc(=O)n4c(C)csc4n3)c2)cc1,u,x,n[12.7 µM],n,x,x
Cc1nc2c(-c3ccccc3)c(C)nn2c(C)c1CCC(=O)NCc1ccc(F)cc1,x,x,n,n,x,x
CCOC(=O)c1cccc(NS(=O)(=O)c2ccc(-c3cnc(C4CC4)o3)cc2)c1,u,x,n[12.7 µM],n,x,x
O=C1CCC=C1[C@@H](O)CCc1ccccc1,x,n,x,x,n[13.5 µM],x
O=C1NC(c2ccco2)Nc2sc3c(c21)CCN(Cc1ccccc1)C3 (stereo not drawn),n,n,28.2µM,n,u,n
CCOC(=O)N1CCc2c(sc3c2C(=O)NC(c2cc(OC)c(O)c(OC)c2)N3)C1 (stereo not drawn),n,x,17.8µM,n,x,x
CCOC(=O)N1CCc2c(sc3c2C(=O)NC(c2ccccc2)N3)C1 (stereo not drawn),u,56.2µM,u,n,u,u
CN1CCc2c(sc3c2C(=O)NC(c2ccc(-c4ccc(Cl)cc4)o2)N3)C1 (stereo not drawn),x,50.1µM,x,n,u,u
COc1cc(C2NC(=O)c3c(sc4c3CCN(C)C4)N2)cc(OC)c1OC (stereo not drawn),x,x,u,n,x,x
CN1CCc2c(sc3c2C(=O)NC(c2ccco2)N3)C1 (stereo not drawn),n,n,u,n,u,u
CCS(=O)(=O)c1nc(S(=O)(=O)c2ccc(C)cc2)c(N2CCC3(CC2)OCCO3)s1,x,n,n,n,x,x
OCCCNCc1ccc(N(c2ccccc2)c2ccccc2)cc1,x,n,12.6µM,n,x,x
CC(C)(Oc1ccc(Cl)cc1)C(=O)N/N=C/c1cn[nH]c1-c1ccccc1,n,u,n,n,8.91µM,n
O=C(N/N=C\c1cn[nH]c1-c1ccc(Cl)cc1)c1cccs1,x,n,n,n,x,u
Cc1cc(=O)oc2cc(OCC(=O)N3CCc4ccccc4C3)ccc12,u,n,n,n,u,u
Cc1cc(=O)oc2ccc(OCC(=O)N3CCc4ccccc43)cc12,n,n,n,n,15.8µM,n
Cc1cc(=O)oc2cc(OCC(=O)N3CCCc4ccccc43)ccc12,n,n,u,n,22.4µM,u
Cc1ccc(C(=O)N/N=C\C=C\c2ccccc2[N+](=O)[O-])cn1,u,n,n,n,7.94µM,n
Cc1cc(C(=O)N/N=C/c2ccccn2)n[nH]1,u,39.8µM,n,n,n,u
O=C(O)c1cccc(NC(=S)N/N=C/c2ccccn2)c1,n,n,50.1µM,n,20µM,u
Cc1occc1C(=O)N/N=C/c1ccccn1,u,63.1µM,x,n,28.2µM,n
O=C(O)c1cccc(NC(=S)N/N=C/c2cccc(O)c2)c1,n,n,n,n,n,n
Cc1ccc(NC(=O)C2CCCN(c3nnc(C)c4c(C)n(-c5ccccc5)nc34)C2)c(Cl)c1 (stereo not drawn),x,x,n,n,x,x
Cc1cccc(C(=O)Nc2cccc(C(=O)N/N=C/c3ccccn3)c2)c1,x,n,u,n,x,x
SMILES,LMNA splice mod,Sfp inh,G9a block,miR-21 reporter,ALDH1A1 inh,KDM4E inh
Cc1cccc(C(=O)N/N=C/c2ccccn2)c1,u,44.7µM,15.8µM,n,n,n
O=C(O)c1cccc(NC(=S)N/N=C/c2ccccc2OCc2cccc(Br)c2)c1,x,u,44.7µM,n,u,u
CC(C)(C)c1ccc(C(=O)N/N=C/c2ccccn2)cc1,x,n,n,n,x,x
Cc1ccc(C(=O)N/N=C\c2ccccn2)cn1,x,7.08µM,n,n,n,u
CCOC(=O)c1ccc(CN(Cc2ccc(Br)cc2)S(=O)(=O)c2cccc(C(F)(F)F)c2)cc1,n,x,n,n,x,x
Cc1ccc(-c2noc(CCCC(=O)NC3CCCCC3)n2)cc1,x,n,n,n,x,x
CC(=O)Nc1nc(-c2ccc([N+](=O)[O-])cc2)cs1,x,n,n,n,n,n
O=C(Nc1ccc([N+](=O)[O-])cc1)Nc1nc(-c2ccc(Cl)s2)cs1,u,u,15.8µM,u,u,n
O=C(Nc1nc(-c2ccc(Cl)s2)cs1)c1cccs1,u,u,50.1µM,n,u,u
CCCC(=O)Nc1nc(-c2ccc(Cl)s2)cs1,x,n,n,n,n,n
